# System: NK-92 cells
# Test: IFN-γ production by NK-92 cells (ELISA)
# Format: cell-based
# Details: NK-92 cells cultured in presence of IL-2
# Experimental: FIG. 3A depicts NK-92 cells were stimulated with compound 4 alone in the absence of IL-2 for 23 hours. Levels of IFN-γ in culture supernatants were quantified using ELISA, and results were shown as pg/mL. Cells were also treated with control DMSO as well as cultured with medium in presence/absence of IL-2
# FIG. 3B depicts that the growth of NK-92 cells is IL-2 dependent.
substance,measurement,value
"IL-2: ""the growth of NK-92 cells is IL-2 dependent. The presence of IL-2 is able to induce the production of IFN-γ""",production of IFN-γ,able to induce the production of IFN-γ

# Source: patent US11638716B2, “Compounds, compositions, and methods for the treatment of disease” (F-star Therapeutics, Inc., priority 2017, dated 2023)
